# HDAC3 inh = blocks human histone deacetylase 3; inhibition, % at 8.3 µM; 320,000 compounds, 0.15% hits; O15379; AID 2718; recombinant HDAC3, fluorogenic peptide/trypsin coupled, fluorescence; in the data active = inhibition above about 26%, passing the limit was not always enough; inconclusive = no clear call, values can overlap the other calls
# ALR inh = inhibitors of human sulfhydryl oxidase ALR; 290,000 tested, 3.8% active; inhibition, % (test concentration not listed); AID 485317; P55789; purified ALR, DTT oxidation, H2O2 HRP-luminol luminescence;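 active = mean and each replicate at 75% or more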;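 also: stock transfer was 7.5 nL into about 7.5 µL; 0% = neutral wells and 100% = wells with inactivated enzyme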
# NALP1 inh = NALP1 inhibition | inhibition, % at 10 µM | S. cerevisiae NALP1/ASC/caspase-1 growth, X-gal OD620, 72 h | 280,000 compounds, 0.61% hits; in the data active = inhibition mostly above about 24%, no sharp cut-off; inactive = mostly below about 32%
# MC4R barr agon = agonists of human melanocortin 4 receptor (MC4R) beta-arrestin. P32245. U2OS MC4R beta-arrestin complementation, luminescence; percent of melanotan II response, DMSO zero. 360,000 compounds, 0.98% hits. activation, % at 8.9 µM. AID 540308;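 active = activation above a per-plate cutoff, the mean activation of sample wells on that plate plus 3 SD, cut at about 8% in these data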
# MC4R antagonist = blocks human MC4R cAMP signaling. MC4R-expressing cells, MTII-stimulated cAMP, LANCE TR-FRET. inhibition, % at 6.5 µM. 360,000 compounds, 0.48% hits;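 active = inhibition above its plate's cutoff, the mean of tested wells on that plate plus 3 SD, cut at about 29% in these data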;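 also: 0% = Melanotan II alone and 100% = Melanotan II plus saturating MCL0020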
#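 material = U2OS cells stably expressing human melanocortin 4 receptor (MC4R) | also added = Melanotan II challenge | dosing = single nominal compound dose of 6.5 µM | detection = TR-FRET with Eu-cAMP and labeled anti-cAMP, 671 nm | replication = singlicate | timing = compound 30 min, challenge 1 h, detection 1 h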
# Yeast UUG start = modulators of start codon recognition fidelity in yeast; S. cerevisiae UUG-firefly luciferase reporter, luminescence/redox ratio; AID 602363; 350,000 tested, 0.13% active; activity score, % at 18.7 µM;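 active = replicate mean at a twofold rise or more, about +100% in these data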;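 also: firefly luciferase made from a UUG start codon reports start codon fidelity; reporter light over untreated wells divided by growth signal over untreated wells; some hits fall short of that in this replicate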
# cAMP nonselect = nonselective cAMP signaling inhibitor, MC4R antagonist counter-screen; shares compounds with MC4R antagonist; parental U2OS, forskolin cAMP, LANCE TR-FRET; inhibition, % at 6.5 µM; 1,600 compounds, 26% hits; AID 602193;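 active = mean inhibition over triplicates above the low-control well mean plus 3 SD, set per campaign, cut at about 13% in these data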;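 also: signal is single emission at 671 nm which falls as cellular cAMP rises; 0% = forskolin-stimulated wells and 100% = buffer without forskolin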
# MC4R cAMP antag = human MC4R cAMP antagonism confirmation | shares compounds with MC4R antagonist | MC4R-expressing cells, MTII-stimulated cAMP, TR-FRET | inhibition, % at 6.5 µM | 1,600 compounds, 27% hits | AID 602195; in the data active = inhibition above about 29%;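 also: 0% = agonist stimulated wells alone and 100% = agonist stimulated wells plus saturating reference antagonist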
# Active calls of the source: *; ? = inconclusive; . = no result. Hits are enriched below; roughly 4.2% of the tested compounds scored in any of these assays.
1: Cn1nc([N+](=O)[O-])nc1Sc1cccc2cccnc12
2: C[C@@H]1CN([C@H](C)CO)C(=O)c2cc(NC(=O)NC3CCCCC3)ccc2O[C@@H](C)CCCCO[C@H]1CN(C)Cc1ccc2c(c1)OCO2
3: COc1ccc(C(=O)/C=C/C(=O)N(Cc2ccccc2OC)C(C(=O)NC2CCCCC2)c2ccncc2)c(O)c1 (stereo not drawn)
4: COc1ccc(C(=O)/C=C/C(=O)N(CC(=O)NC2CCCCC2)Cc2ccccc2)c(O)c1
5: COc1ccc(C(=O)/C=C/C(=O)N(CC(=O)NC2CCCCC2)Cc2ccccc2OC)c(O)c1
6: CCOC(=O)c1sc(NC(=O)CCc2ccc(OC)cc2)nc1C

Assay by compound	1	2	3	4	5	6
HDAC3 inh	1	.	9	.	.	-2
ALR inh	-22	.	-1	.	.	-5
NALP1 inh	14	.	-38	-1	-18	2
MC4R barr agon	0	.	4	-2	-6	2
MC4R antagonist	30*	.	15	40*	48*	50*
Yeast UUG start	.	7	.	.	.	-16
cAMP nonselect	8	.	.	5	7	1
MC4R cAMP antag	3	.	.	11	14	16

7: C[C@H]1CN([C@@H](C)CO)C(=O)c2cc(NC(=O)NC3CCCCC3)ccc2O[C@H]1CN(C)S(=O)(=O)c1ccccc1
8: O=C(NCc1ccco1)c1cc(S(=O)(=O)N2CCCc3ccccc32)ccc1Cl
9: CCN(C(=O)COC(=O)c1ccc(S(=O)(=O)N2CCCc3ccccc32)cc1)C1CCS(=O)(=O)C1 (stereo not drawn)
10: CCNC(=O)COC(=O)c1cc(S(=O)(=O)N2CCCc3ccccc32)ccc1Cl
11: CCOC(=O)CCC(=O)Nc1ccc(S(=O)(=O)N2CCCC2)cc1
12: CCOC(=O)CCC(=O)Nc1ccc(S(=O)(=O)N2CCc3ccccc32)cc1

Assay by compound	7	8	9	10	11	12
HDAC3 inh	.	0	12	-1	12	13
ALR inh	.	4	4	-2	0	-5
NALP1 inh	.	1	19	3	38	-3
MC4R barr agon	.	-1	-2	1	0	0
MC4R antagonist	.	-3	30*	33*	5	32*
Yeast UUG start	-4	-7	.	.	-1	-25
cAMP nonselect	.	.	3	25*	.	9
MC4R cAMP antag	.	.	-5	41*	.	23

# The list goes on (3 carried over from the part before).
10: CCNC(=O)COC(=O)c1cc(S(=O)(=O)N2CCCc3ccccc32)ccc1Cl
11: CCOC(=O)CCC(=O)Nc1ccc(S(=O)(=O)N2CCCC2)cc1
12: CCOC(=O)CCC(=O)Nc1ccc(S(=O)(=O)N2CCc3ccccc32)cc1
13: CN1C(=O)c2cc(NC(=O)Nc3ccccc3F)ccc2OC[C@@H]2O[C@H](CC(=O)O)CC[C@H]21
14: CCOc1ccc(S(=O)(=O)N2CCc3ccccc3C2)cc1
15: COC(=O)COc1ccc(S(=O)(=O)N2CCc3ccccc3C2)cc1
16: Cc1ccccc1C(=O)NNC(=O)Cc1ccccc1
17: Cc1ccccc1C(=O)NNC(=O)CCc1ccccc1
18: O=C(Nc1ccc(Cl)cc1)N[C@@H]1CC[C@H](CCn2cc(C3(O)CCCC3)nn2)O[C@@H]1CO

Assay by compound	10	11	12	13	14	15	16	17	18
HDAC3 inh	-1	12	13	.	3	2	0	-12	.
ALR inh	-2	0	-5	.	-4	-3	0	-7	.
NALP1 inh	3	38	-3	.	-6	-7	-6	6	.
MC4R barr agon	1	0	0	.	-2	0	-1	2	.
MC4R antagonist	33*	5	32*	.	0	29*	6	32*	.
Yeast UUG start	.	-1	-25	2	-5	0	-14	-6	-10
cAMP nonselect	25*	.	9	.	.	14*	.	-2	.
MC4R cAMP antag	41*	.	23	.	.	25	.	-3	.

19: CC(=O)c1ccc(NC(=O)C2(S(=O)(=O)c3ccccc3)CC2)cc1
20: C[C@H](CO)N1C[C@H](C)[C@@H](CN(C)C(=O)Nc2cccc3ccccc23)Oc2c(NC(=O)c3nc4ccccc4s3)cccc2C1=O
21: CCOC(=O)c1ccc(N=c2sc(C(=O)OC)cc(=O)n2-c2ccc(C(=O)OCC)cc2)cc1
22: COC(=O)c1cc(=O)n(-c2ccccc2)c(=Nc2ccccc2)s1
23: Cc1cccc(NC(=O)c2ncn3c2C(=O)N[C@H](C)C3)c1
24: C[C@H]1Cn2cnc(C(=O)Nc3ccccc3)c2C(=O)N1
25: COc1ccc(S(=O)(=O)N(C)C[C@@H]2OCCCC[C@@H](C)Oc3ccc(NC(=O)Nc4ccccc4)cc3C(=O)N([C@H](C)CO)C[C@H]2C)cc1

Assay by compound	19	20	21	22	23	24	25
HDAC3 inh	-8	.	?	6	.	.	.
ALR inh	-7	.	-29	4	.	.	.
NALP1 inh	-6	.	33	52	.	.	.
MC4R barr agon	0	.	1	3	.	-1	.
MC4R antagonist	30*	.	32*	11	.	31*	.
Yeast UUG start	.	-3	-34	25	-13	11	-23
cAMP nonselect	0	.	6	.	.	-1	.
MC4R cAMP antag	-3	.	18	.	.	-1	.

# High-throughput results deposited in PubChem by several laboratories.
